The assay concerns the target heterodimeric LIF receptor (murine gp130 and LIFRα) on transiently transfected Ba/F3 cells (mouse) (UniProt Q00560). Kind of assay: cell-based or functional assay.

We go through one substance from patent EP2226633A1.

As for “murine LIF, unlabelled (from UniProt P09056 24-203) (ligand)”, the drop of proliferation rate of M1 cells (MTT assay, three days, 50 ng/ml mLIF combined with EPO variants) lay in the range of 30 to 55%.
